According to patent US5162115A, “Antineoplastic solution and method for treating neoplasms” (priority 1991, dated 1992):

System: T9 gliosarcoma
Assay: Histology of brain/tumor of treated T9 gliosarcoma bearing rats
Format: in vivo, rat (male CDF, Fischer 344)
Excerpt: Using length of survival as an endpoint, the efficacy of the two therapeutic regimens was compared. All animals were autopsied at their time of death. A gross inspection was made of the lungs, liver and kidneys, and the brain was removed in toto and fixed in 10% buffered formalin for three days. A single coronal section was cut through the center of the tumor site and both halves were imbedded in paraffin and stained with hematoxylin and eosin for blind histopathologic examination. Median survival rates were calculated for each group, and the data were analyzed nonparametrically with the Wilcoxon rank sum test.
To study acute effects on the tumor some of the intratumoral solution BCNU treated animals (n=12) were sacrificed healthy on days 7, 10 and 14.

O=NN(CCCl)C(=O)NCCCl [BCNU, 1,3-bis(2-chloroethyl)-1-nitrosourea]
histology, three animals which lived relatively long (BCNU treated, 94, 108 and 98 days): Two of these histologically presented acute hemorrhage and no tumor; also recorded: the third displayed a large cyst with polymorphonuclear leukocytes and some very unhealthy T9 tumor tissue | histology, animals which lived a normal life span (BCNU treated, 600-700 days): displayed large cysts always surrounded by dense connective tissue capsules, some containing polymorphonuclear leukocytes; also recorded: no T9 gliosarcoma tumor was found, tumor cell necrosis was usually present as was hemosiderin pigment; also recorded: Some animals also presented with extensive infiltrates of lymphocytes and plasma cells; also recorded: totally eradicated the tumors in animals which lived a normal life span | histology, animals that died during phase 3 (BCNU treated, days 251-325): demonstrated cysts, necrosis, scar tissue, and no T9 gliosarcoma | histology, animals which died during phase one (BCNU treated, death at 18-24 days): displayed typical large healthy tumors; also recorded: tumor cell necrosis was also observed, usually at top of the tumor while the bottom grew out aggressively; also recorded: Cysts with polymorphonuclear leukocytes and sometimes hemorrhage were found | histology, animals that died during phase 2 (BCNU treated, death at 25-166 days): large tumors containing prominent bands of central necrosis | necrosis of normal tissue (intratumoral BCNU formulation, deep into the tumor): minimal necrosis of normal tissue was observed | acute effects on the tumor (histology) (intratumoral BCNU solution, n=12, sacrificed days 7, 10 and 14, three groups): One group displayed tumor destruction at the top, with the majority of the tumor left untouched; also recorded: In a second group most of the tumor was successfully treated, but small amounts of viable tumor remained; also recorded: In a third group the tumor was totally eradicated by the therapy and was replaced with a cyst containing necrotic tumor tissue | histology, animals which did not live a normal life span (single 4 mm deep injection of BCNU solution): did miss a portion of the tumor in most animals which did not live a normal life span

Entries after “also recorded” stand apart in the source; their conditions may differ.
